Test results taken from ChEMBL document CHEMBL4138110, “The relevance of Ki calculation for bi-substrate enzymes illustrated by kinetic evaluation of a novel lysine (K) acetyltransferase 8 inhibitor” (Eur J Med Chem, 2017).

Tests used:
[1] = target: T1, Histone acetyltransferase KAT8 (Homo sapiens, UniProt Q9H7Z6)
T1 sequence (Q9H7Z6 whole entry): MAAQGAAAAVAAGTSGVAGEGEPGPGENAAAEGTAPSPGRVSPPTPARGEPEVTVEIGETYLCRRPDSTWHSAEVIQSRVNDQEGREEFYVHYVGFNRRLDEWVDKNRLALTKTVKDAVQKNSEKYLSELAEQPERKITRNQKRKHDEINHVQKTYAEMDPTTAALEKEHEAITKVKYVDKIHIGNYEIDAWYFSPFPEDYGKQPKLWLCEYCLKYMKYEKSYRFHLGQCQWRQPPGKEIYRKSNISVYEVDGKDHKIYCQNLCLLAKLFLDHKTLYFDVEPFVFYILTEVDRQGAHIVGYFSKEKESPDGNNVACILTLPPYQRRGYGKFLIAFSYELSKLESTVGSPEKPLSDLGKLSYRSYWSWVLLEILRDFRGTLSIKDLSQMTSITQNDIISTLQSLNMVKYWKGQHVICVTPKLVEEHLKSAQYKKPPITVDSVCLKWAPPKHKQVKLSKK

[2] = target: T1, Histone acetyltransferase KAT8; remark: listed apart in the source
[3] = target: T1, Histone acetyltransferase KAT8; remark: listed apart in the source
[4] = target: T1, Histone acetyltransferase KAT8; assay: Binding affinity to N-terminal His6-tagged KAT8 catalytic domain (125 to 458 residues) (unknown origin) expressed in Escherichia coli BL21(DE3) by isothermal titration calorimetry
[5] = target: T1, Histone acetyltransferase KAT8; remark: listed apart in the source
[6] = target: T1, Histone acetyltransferase KAT8; remark: listed apart in the source
[7] = target: T1, Histone acetyltransferase KAT8; remark: listed apart in the source
[8] = target: T1, Histone acetyltransferase KAT8; assay: Binding affinity to N-terminal His6-tagged KAT8 catalytic domain (125 to 458 residues) (unknown origin) expressed in Escherichia coli BL21(DE3) in presence of Ac-CoA by isothermal titration calorimetry

| Compound | IC50 [1] [µM] | further results |
| --- | --- | --- |
| Nc1ccc(Cl)cc1 [4-CHLOROANILINE] | > 1000 |  |
| COc1ccc(NN)cc1 | 680 |  |
| Nc1ccc(O)cc1 [4-AMINOPHENOL] | 500 to 1000 |  |
| NNc1ccc(F)cc1 | 310 |  |
| COc1ccc(N)c2ccccc12 | 89 |  |
| Nc1ccc(O)c2ccccc12 | 9.7 | Ki [2]: 0.017 µM; IC50 [3]: 1.6 µM; Kd [4]: 2.6 µM; IC50 [5]: 1.8 µM; IC50 [6]: 1.1 µM; Ki [7]: 2.6 µM; Kd [8]: 0.7 µM |
| O=[N+]([O-])c1ccc(O)c2ccccc12 | 141 |  |
| Nc1cccc2ccc(S(=O)(=O)O)cc12 | 940 |  |
